# Measured values taken from patent US20150164910A1, “ANTIVIRAL COMPOUNDS AND METHODS OF USE” (The Regents of the University of Califonia, priority 2012, published 2015).
# Legend:
# [1] = test system: coxsackievirus B3-MCH (CVB3-MCH); conditions: HeLa-RW, with or without fluoxetine, plaque reduction (FIG. 4)
# [2] = test system: coxsackievirus B2 (CVB2); conditions: HeLa-RW, with or without fluoxetine, plaque reduction (FIG. 4)
# [3] = test system: eGFP-expressing recombinant CVB3; type: cell-based, coxsackievirus B3; conditions: read 6 hr post infection
# [4] = test system: CVB3-H3; experiment: Plaque reduction assay, CVB3-H3 in HeLa-RW cells; type: cell-based, coxsackievirus B3; conditions: compound added 30 min before infection, CVB3-H3 MOI 1, HeLa-RW, 6 hours; log10(titer with DMSO only/titer with inhibitor)
# [5] = test system: coxsackievirus B3 (CVB3); experiment: Cell viability assay, prevention of cell death caused by CVB3 infection; type: cell-based; conditions: 50% Cytotoxic concentration/50% activity concentration
# Description: Procedure: Enteroviruses rapidly cause cell death, and a cell viability assay was used to examine the cytotoxicity of each compound and to identify the concentration needed to prevent cell death caused by coxsackievirus B3 (CVB3) infection.
# Compounds were diluted two-fold and added to wells of 384 well plate. HeLa-RW cells were then added (cytotoxicity testing), or cells and CVB3 were added to provide a low multiplicity of infection to determine concentration of peak activity or 50% maximal concentration. Selectivity index is defined as the 50% Cytotoxic concentration/50% activity concentration
# [6] = test system: coxsackievirus B1, (CVB1); conditions: HeLa-RW, with or without fluoxetine, plaque reduction (FIG. 4)
smiles,measurement,setting,value
"CNCCC(Oc1ccc(C(F)(F)F)cc1)c1ccccc1 (centres unmarked) [Compound 72, N-Methyl-3-phenyl-3-[4-(trifluoromethyl)phenoxy]-1-propanamine hydrochloride (1:1), reference compound]","reduction of replication, CVB3-MCH",[1],3.6 log 10 units
same,"reduction of replication, CVB2",[2],4.2 log 10 units
same,"% of eGFP + cells, 0 Hr","[3]; compound added 0 hr post infection at its peak activity concentration, DMSO 26.0",0.0%
same,"% of eGFP + cells, 1 Hr","[3]; compound added 1 hr post infection at its peak activity concentration, DMSO 23.7",0.0%
same,"% of eGFP + cells, 2 Hr","[3]; compound added 2 hr post infection at its peak activity concentration, DMSO 24.8",0.0%
same,Log10 reduction of virus titer,[4],4.7
same,Selectivity index,[5],11
same,"reduction of replication, CVB1",[6],4.2 log 10 units

# Where a name gives a salt, the structure may show the parent alone.
